Series [1] is described as follows: Compound was tested for ability to protect against the irreversible antagonism of morphine''s effects by beta-FNA in guinea pig ileum at 3 nM concentration.
The nature of series [2]: Compound was evaluated for equilibrium constant, Ke. Format: ADME.

The structures appear in SMILES notation.

With `CO[C@]12CC[C@@]3(C[C@@H]1C(C)(C)O)[C@H]1Cc4ccc(O)c5c4[C@@]3(CCN1CC1CC1)[C@H]2O5` [listing 1 of 2 here], in series [1], the Ratio was 1.8.

For the molecule `CO[C@]12CC[C@@]3(C[C@@H]1C(C)(C)O)[C@H]1Cc4ccc(O)c5c4[C@@]3(CCN1CC1CC1)[C@H]2O5` [listing 2 of 2 here], the Ke in series [2] came to 0.13.

In series [2], `CN1CC[C@]23c4c5ccc(O)c4O[C@H]2[C@@H](O)C=C[C@H]3[C@H]1C5` returned a Ke of 88.
